Values of other authors as cited in patent US9492388B2, “Coated particles for sustained-release pharmaceutical administration” (St. James Associates LLC/Faber Research Series, priority 2002, dated 2016).

Conditions: in vivo

period over which therapeutic levels are sustained: 14 to 28 days
Substance: procaine penicillin
